## Ab-14 heavy chain CDR variants: yeast mating affinities

Antigen: PDVDLGDISGINAS, a 14-residue peptide of the SARS-CoV-2 spike HR2 region.

Parent scFv Ab-14: VH joined to VL by the linker GGGGSGGGGSGGGGS. Changes lie in the heavy chain CDRs alone.
VH: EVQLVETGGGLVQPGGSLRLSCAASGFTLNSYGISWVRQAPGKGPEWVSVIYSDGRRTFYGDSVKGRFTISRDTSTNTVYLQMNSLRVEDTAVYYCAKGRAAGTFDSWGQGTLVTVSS
VL: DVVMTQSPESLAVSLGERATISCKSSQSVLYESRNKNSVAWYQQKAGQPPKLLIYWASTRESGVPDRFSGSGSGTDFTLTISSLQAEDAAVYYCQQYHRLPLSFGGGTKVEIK

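The starting antibody came from a phage panning campaign against this peptide. These sequences belong to a second round, designed from the earlier measurements on random variants of the parent. Several design methods are mixed in this list. Affinity was read by AlphaSeq, a pooled yeast mating assay with surface-displayed partners. Binding brings cells together so that they mate, and sequencing counts the barcode pairs among the diploids. The ratio of observed to expected reads was calibrated, replicate by replicate, on BCL2-family standards whose Kd was known from biolayer interferometry. There are six technical replicates.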

Variants are written as CDR1, CDR2 and CDR3 of the heavy chain (limits as in the source). Parent: GFTLNSYGIS, VIYSDGRRTFYGDSVK, GRAAGTFDS. Variants here have at most six changes. The Kd shown is the geometric mean over detected replicates; a lower Kd is a better binder. An entry "nd" has no value in the source: the pair was not observed among the diploids in any replicate. This suggests poor binding but is not conclusive. Order: sorted from the lowest average up, undetected variants last. Background: pairings of all heavy chain designs with three empty control strains gave a value in 1% of cases (median 120 nM, 5th percentile 7.0 nM). Values in that range, when seen in few replicates, are hard to tell from nonspecific mating. Of ten entries with the parent sequence, four were seen in most replicates (averages 2.2 nM to 240 nM), three in one and three in none, so single entries are noisy. The authors averaged sequences with at least three values out of six and counted those with two or fewer as poor binders. A sequence measured in both rounds can read differently, since the two assays cover different ranges.

* GFWLNSYGIS / VIYSDGRRTFYSDSVK / GQAAGTFDS: 290 pM (6 of 6 replicates)
* GFTLNSYGIS / VIYSDGRRTFYSDSVK / GNEAGTFDS: 420 pM (6 of 6 replicates)
* GFSLNEYGIS / VIYSDGRRTFYGEHVK / GRTAGTFDS: 640 pM (6 of 6 replicates)
* GFDLNNYGIS / VIYSDGRRTFYVDSVK / GQAAGTFDS: 890 pM (6 of 6 replicates)
* GFDLNSYGIS / VIYSDGRRTFYGDSVK / GSTAGTFDS: 1.1 nM (6 of 6 replicates)
* GFSLNEYGIS / VIYSDGRRTFYTDSVK / GKAAGTFDS: 1.1 nM (6 of 6 replicates)
* GFSLNDYGIS / VIYSDGRRTFYGDSVK / GRAAGTFKS: 1.2 nM (6 of 6 replicates)
* GFDLNSYGIS / VIYSDGRRTFYGDRVK / GRTAGTFDA: 1.2 nM (6 of 6 replicates)
* GFTLNEYGIS / VIYSDGRRTFYSDSVK / GQAAGTFDK: 1.4 nM (6 of 6 replicates)
* GFTLDSYGIS / VIYSDGRRTFYGDSVK / GQTAGTFDS: 3.3 nM (6 of 6 replicates)
* GFDLNSYGIS / VIYSDGRRTFYADDVK / GNAAGTFDN: 3.7 nM (6 of 6 replicates)
* GKTLNSYGIS / VIYADGRRTFYGDSVK / GRVAGTFDS: 3.9 nM (6 of 6 replicates)
* GFDLNSYGIS / VIYSDGRRTWYGDSVK / GRTAGTFDS: 10 nM (4 of 6 replicates)
* GFTLNDYGIS / VIYSDGRRTYYGDSVK / GRAAGTFDS: 11 nM (4 of 6 replicates)
* GFTLNDYGIS / VIYSDGRRTFYADSVK / GRAAGTFVS: 12 nM (4 of 6 replicates)
* GFELNMYGIS / VIYSDGRRTFYTDSVK / GRTAGTFDS: 13 nM (2 of 6 replicates)
* KFQLNEYGIS / VIYSDGRRTFYQDSVK / GRTAGTFDS: 29 nM (5 of 6 replicates)
* GFTLNDYGIS / VIYSDGRRTFYTDSVK / GRFAGTFDN: 31 nM (6 of 6 replicates)
* GFKLNSYGIS / VIYSDGRRTFYVDSVK / GQLAGTFDS: 32 nM (2 of 6 replicates)
* GFNINSYGIS / VIYSDGRRTFYGDSVK / GDHAGTFDT: 34 nM (6 of 6 replicates)
* GFTLNDYGIS / VIYSDGRRTWYGDSVK / GRAAGTFDT: 34 nM (5 of 6 replicates)
* GFYLNSYGIS / VIYSDGRRTFYKDSVK / GQLAGTFDS: 38 nM (1 of 6 replicates)
* GFELNDYGIS / VIYSDGRRTFYCDSVK / GRTAGTFDS: 47 nM (6 of 6 replicates)
* GFQLNSYGIS / VIYSDGRRTFYGDSVK / GEAAGTFDS: 53 nM (5 of 6 replicates)
* GFQLNNYGIS / VIYSDGRRTFYGDSVK / GRAAGTFDS: 100 nM (6 of 6 replicates)
* GFEINSYGIS / VIYSDGRRTFYGDSVK / GDAAGTFDS: 190 nM (6 of 6 replicates)
* GFTLNDYGIS / VIYSDGRRTQYIQSVK / QRAAGTFDS: 280 nM (1 of 6 replicates)
* GFTLNSYAIS / VIYSDGRRTFYSDSVK / ERAGGTSDS: nd (0 of 6 replicates)
* GFTLNSYGIS / VIYSDGRRTFYGDSVK / GRAYGPVDS: nd (0 of 6 replicates)
* GFQLNSYGIS / VIYADGRRTFYGDQVK / GRAAGTFKS: nd (0 of 6 replicates)
* GFTLNETGIS / VIYSDGRRTFYTDSVK / GRFAGTFDN: nd (0 of 6 replicates)
* GFTLNSYGIS / VIYSDGRRTFYSDSVK / GRAGGSFDS: nd (0 of 6 replicates)
* GFTLNSYGIS / VIYSDGRRTFYGDSVK / GRAYGYFDS: nd (0 of 6 replicates)
* GFDLNSYGIS / VIYSDGRRKFYGDNVK / GRAACTFDS: nd (0 of 6 replicates)
* GFTNNSYGIS / VIYSDGSRTFYMDSVK / GRAAGTFDS: nd (0 of 6 replicates)
* GFTVEQYGIS / VIYSDGRRTFYSDSVK / GRAAGFFDS: nd (0 of 6 replicates)

Picked from the list: the 5 lowest averages where every replicate gave a value.

- GFWLNSYGIS / VIYSDGRRTFYSDSVK / GQAAGTFDS -> 290 pM (6 of 6 replicates)
- GFTLNSYGIS / VIYSDGRRTFYSDSVK / GNEAGTFDS -> 420 pM (6 of 6 replicates)
- GFSLNEYGIS / VIYSDGRRTFYGEHVK / GRTAGTFDS -> 640 pM (6 of 6 replicates)
- GFDLNNYGIS / VIYSDGRRTFYVDSVK / GQAAGTFDS -> 890 pM (6 of 6 replicates)
- GFDLNSYGIS / VIYSDGRRTFYGDSVK / GSTAGTFDS -> 1.1 nM (6 of 6 replicates)

Reference: Li et al. 2023, doi:10.1038/s41467-023-39022-2. File: FLAb, binding data.